The results in this text go back to patent US20190327961A1, “STABLE SOLID COMPOSITION BASED ON AN AROMATIC COMPOUND AND USES THEREOF” (priority 2016, published 2019).

The subject of this assay is cherry tomatoes (Angel D1A1 variety). As to the kind of experiment: Washing of cherry tomatoes post-harvest, storage test. Format: in vivo.

In the case of chlorine, the “Percentage of Rotten Cherry Tomatoes” value runs as follows: (Stored at 8° C., 4 d) 2%; (Stored at 8° C., 6 d) 6.67%; (Stored at 8° C., 8 d) 10%; (Stored at 8° C., 10 d) 15%; (Stored at 8° C., 12 d) 30%; (Stored at 8° C., 14 d) 37.68%. Moreover, the “Percentage of Rotten Cherry Tomatoes” value reads like this: (Stored at 8° C., 16 d) 50%; (Stored at 25° C., 4 d) 9.55%; (Stored at 25° C., 6 d) 20.58%; (Stored at 25° C., 8 d) 42.9%; (Stored at 25° C., 10 d) 47.9%; (Stored at 25° C., 12 d) 50%. Besides, the “Percentage of Rotten Cherry Tomatoes” value is, setting by setting: (Stored at 25° C., 14 d) 57.15%; (Stored at 25° C., 16 d) 64.28%.
